# High-throughput results deposited in PubChem BioAssay by Broad Institute.
# Yeast UUG start – modulators of start codon recognition fidelity in yeast; AID 602363; activity score, % at 18.7 µM; S. cerevisiae UUG-firefly luciferase reporter, luminescence/redox ratio; 0.13% of 350,000 active;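 active = replicate mean at a twofold rise or more, about +100% in these data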;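 note: firefly luciferase made from a UUG start codon reports start codon fidelity; reporter light over untreated wells divided by growth signal over untreated wells; some hits fall short of that in this replicate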
# CAL PDZ FP-1 – human CAL PDZ-peptide interaction inhibition; Q9HD26; purified CAL PDZ, TMR-peptide fluorescence polarization, 1 h; inhibition, % at 20 µM; hit rate 0.02% among 330,000;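 active = highest replicate inhibition of at least 40%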;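 note: plate controls were DMSO neutral control wells for no effect and unlabeled competitor peptide control wells for full effect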
#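 Control set: unlabelled peptide and DMSO controls / Material: purified CerCALP PDZ construct / Timing: 1 h incubation at room temperature before polarization reading / Doses: 20 µM, one dose / Detection: fluorescence polarization (mP)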
# PglD DTNB – PglD (C. jejuni) enzyme inhibition; purified PglD enzyme, DTNB colorimetric CoA detection; inhibition, % at 12.5 µM; hit rate 0.098% among 360,000; AID 602405; in the data active = inhibition above about 16%, passing the limit was not always enough
# ARNT TACC3 PPI – ARNT/TACC3 interaction disruption; inhibition, % at 9.99 µM; hit rate 0.66% among 390,000; Q9Y6A5; AID 623870; AlphaScreen His-ARNT PAS-B/GST-TACC3 binding, luminescence; TACC3 fragment carries E629A point mutation;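 active = mean inhibition of replicates at least 50% and at least half of replicates each reaching 50%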;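 note: 0% = complete ARNT plus TACC3 wells and 100% = ARNT alone without TACC3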
# Vif imaging – blocks HIV Vif function | hit rate 0.35% among 340,000 | AID 602346 | inhibition, % at 7.49 µM | HEK293T cells, Vif self-association by quenched fluorescence, imaging, 24 h; in the data active = inhibition above about 50%, passing the limit was not always enough
# CAL PDZ FP-2 – inhibitors of human CAL PDZ peptide binding; purified CAL PDZ, TMR-peptide fluorescence polarization, 1 h; inhibition, % at 24.9 µM; hit rate 0.92% among 300,000; AID 602252;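 active = mean inhibition of at least 30% with at least half of replicates also reaching 30%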;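 note: 0% = DMSO neutral control and 100% = excess unlabeled competitor peptide PRC23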
# Active calls of the source: *; · = no result given; + = active, no number. Shown are actives, neighbours in structure and some others; about 1.6% of the full set was active somewhere.
CAL PDZ FP-2	PglD DTNB	ARNT TACC3 PPI	Vif imaging	Yeast UUG start	CAL PDZ FP-1	SMILES
·	1	0	·	·	·	COc1cccc(NC(=O)N2C[C@H](O)COC[C@H]3O[C@@H](CC(=O)NC4Cc5ccccc5C4)CC[C@@H]32)c1
64*	-10	2	2	5	-1	O=C(Nc1cc(Cl)ccc1N1CCOCC1)c1cccnc1Cl
-3	·	37*	11	·	0	COc1cc(CCNC2=CC(=O)c3ncccc3C2=O)ccc1O
·	-3	-7	·	7	·	C[C@H](CO)N1C[C@H](C)[C@H](CN(C)S(=O)(=O)c2ccccc2)Oc2ncc(Br)cc2C1=O
·	-7	22*	3	-12	2	Cc1ccc(C(=O)N/C(=C\c2ccc(-c3ccccc3[N+](=O)[O-])o2)C(=O)NCCN(C)C)cc1
42*	-4	8	-15	-17	·	COc1ccc(CCNC(=O)c2ccc(Br)cc2)cc1
33*	2	-7	-7	-12	·	COc1ccccc1OCCNC(=O)c1ccc(Br)cc1
4	·	-4	-2	·	-2	COc1cc2ncnc(NCCCN3CCOCC3)c2cc1OC

# Remaining list, next part:
CAL PDZ FP-2	PglD DTNB	ARNT TACC3 PPI	Vif imaging	Yeast UUG start	CAL PDZ FP-1	SMILES
5	·	56*	-4	·	-2	COc1cc2nc(=S)n(CCCN3CCOCC3)c(N)c2cc1OC
-2	-11	55*	-4	-5	-7	CCOc1cc2nc(-c3ccc(OC)c(OC)c3)nc(NCCCN3CCOCC3)c2cc1OC
·	·	·	·	10	·	C[C@@H]1CN([C@H](C)CO)C(=O)c2cc(NC(=O)C3CCCCC3)ccc2O[C@@H]1CN(C)Cc1ccc(Oc2ccccc2)cc1
·	0	-7	·	·	·	CN(C)C(=O)C[C@@H]1CC[C@H]2[C@@H](COC[C@H](O)CN2Cc2ccc(C(F)(F)F)cc2)O1
·	0	4	·	17	·	O=C(Cc1ccccc1)N1C[C@H]2[C@@H](c3ccccc31)[C@H](CO)N2C(=O)C1CCCCC1
52*	5	-4	3	-13	0	COc1ccc(NC(=O)CSc2nnc(N)n2CC(=O)Nc2ccc(OC)cc2)cc1
103*	-7	7	-5	18	·	COc1ccc(NC(=O)CSc2nnc(-c3ccoc3C)n2CCc2ccccc2)cc1
6	0	-28	49	-5	-3	COCCn1c(SCC(=O)Nc2ccc(OC)cc2)nnc1-c1ccoc1C

# Entries of single compounds, quoted from the list. Order of screens: CAL PDZ FP-2	PglD DTNB	ARNT TACC3 PPI	Vif imaging	Yeast UUG start	CAL PDZ FP-1
# Entry for `CN(C)C(=O)C[C@@H]1CC[C@H]2[C@@H](COC[C@H](O)CN2Cc2ccc(C(F)(F)F)cc2)O1` : ·	0	-7	·	·	·
# Entry for `C[C@@H]1CN([C@H](C)CO)C(=O)c2cc(NC(=O)C3CCCCC3)ccc2O[C@@H]1CN(C)Cc1ccc(Oc2ccccc2)cc1` : ·	·	·	·	10	·
# Entry for `COCCn1c(SCC(=O)Nc2ccc(OC)cc2)nnc1-c1ccoc1C` : 6	0	-28	49	-5	-3
# Entry for `O=C(Cc1ccccc1)N1C[C@H]2[C@@H](c3ccccc31)[C@H](CO)N2C(=O)C1CCCCC1` : ·	0	4	·	17	·

# More structures.
CAL PDZ FP-2	PglD DTNB	ARNT TACC3 PPI	Vif imaging	Yeast UUG start	CAL PDZ FP-1	SMILES
-14	·	28	2	·	-2	COc1ccc(NC(=O)CSc2nnc(C)n2Cc2ccccc2)cc1
·	0	1	·	0	·	C[C@@H]1CCCCO[C@@H](CN(C)S(=O)(=O)c2cccs2)[C@H](C)CN([C@@H](C)CO)C(=O)c2cc(NC(=O)CCCN(C)C)ccc2O1
41*	-1	4	-2	-14	-5	O=C(N/N=C/c1ccco1)c1cc(-c2cccs2)[nH]n1
-4	·	-1	-7	·	-3	O=C(N/N=C/c1ccco1)c1cc(-c2ccc(Br)s2)[nH]n1
-2	3	-4	·	-7	-2	CC(=O)Nc1nonc1-c1nc2ccccc2n1CCC(C)C
-7	-5	-2	80*	-15	-1	CC(=O)Nc1nonc1-c1nc2ccccc2n1C
-3	·	58*	8	·	0	O=C(O)CCCCCNS(=O)(=O)c1cccc2c1C(=O)c1ccccc1C2=O
·	-2	-8	·	·	·	CNC(=O)C[C@H]1CC[C@@H]2[C@H](COC[C@@H](O)CN2S(=O)(=O)c2ccccc2Cl)O1

# New compounds follow.
CAL PDZ FP-2	PglD DTNB	ARNT TACC3 PPI	Vif imaging	Yeast UUG start	CAL PDZ FP-1	SMILES
-2	-6	57*	-14	5	-2	O/N=C/c1ccc2cccc(O)c2n1
·	0	26	·	12	·	COCC#Cc1cnc2c(c1)C(=O)N([C@H](C)CO)C[C@@H](C)[C@H](CN(C)C)O2
2	2	4	-4	-14	-1	CCOc1cccc2c1OC1(C)CC2NC(=O)N1c1cccc(C(=O)N2CCN(c3ccccn3)CC2)c1 (stereo not drawn)
93*	-2	-10	4	-10	·	CCOc1cccc2c1OC1(C)CC2NC(=O)N1c1cccc(Cl)c1 (stereo not drawn)
·	-3	-6	·	-8	·	C[C@@H]1CN([C@@H](C)CO)C(=O)Cc2cc(NS(C)(=O)=O)ccc2O[C@H]1CN(C)Cc1ccc(C(F)(F)F)cc1
56*	·	-34	21	·	0	Cc1nc(C)c(CC(=O)N/N=C/c2ccc(O)cc2)c(=O)[nH]1
+	·	1	-5	·	-2	O=[N+]([O-])c1ccc2nc(-c3ccncc3)[nH]c2c1
